## AlphaSeq binding of Ab-14 heavy chain variants to a spike HR2 peptide

Target peptide (SARS-CoV-2 spike, HR2 region): PDVDLGDISGINAS

Parent: Ab-14, a human scFv built as VH, three GGGGS repeats, VL. Only the CDRs of the heavy chain vary.
VH: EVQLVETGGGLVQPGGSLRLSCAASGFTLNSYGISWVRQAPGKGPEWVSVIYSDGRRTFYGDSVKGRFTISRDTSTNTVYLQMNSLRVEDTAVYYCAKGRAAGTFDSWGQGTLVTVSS
VL: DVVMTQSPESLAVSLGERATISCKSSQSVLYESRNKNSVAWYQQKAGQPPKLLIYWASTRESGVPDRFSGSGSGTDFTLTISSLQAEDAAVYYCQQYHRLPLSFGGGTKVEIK

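These sequences belong to a second round, designed from the earlier measurements on random variants of the parent. Their group label is 14H_GP_HC (GP: Gaussian process model; HC: hill climbing; a sequence that several methods proposed may carry one label only). In AlphaSeq, yeast of one mating type display the scFv and yeast of the other type display the target. After mating in shaken culture at 30 °C for 16 h, diploids were selected and their barcode pairs sequenced. Scores were corrected for input abundance and mapped to Kd with protein pairs of known affinity run in the same pool. Each pool was mated in six replicate cultures.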

Substitutions are numbered in sequence along the VH above, starting at 1 (not Kabat).
Values are log10 of the apparent Kd in nM; lower means stronger binding.
Replicates are averaged; those with no signal do not enter the mean.
"nd" marks a missing value. The strain was present, yet no cells mated with the target were sequenced in that replicate, which points to weak or no binding.
A sequence measured in both rounds can read differently, since the two assays cover different ranges.
Background: pairings of all heavy chain designs with three empty control strains gave a value in 1% of cases (median 2.08, 5th percentile 0.84). Values in that range, when seen in few replicates, are hard to tell from nonspecific mating. Also given: how often the same scFv was detected with the empty control strains.
In the paper, a design with two or fewer of six values counts as a poor binder.
Of ten entries with the parent sequence, four were seen in most replicates (averages 0.34 to 2.37), three in one and three in none, so single entries are noisy.

S31E/G61S/A101F/S107I: 0.49, 1.60, 1.12, 1.19, 3.12, 0.99 (mean 1.42; controls 0 of 18).
T28S/S53A/S63Q/D106K: nd, nd, nd, nd, nd, nd (controls 0 of 18).
T28V/S31D/F59A/G61I: 0.67, 1.06, -0.05, 0.31, 0.39, 0.54 (mean 0.49; controls 1 of 18).
T28S/S31E/S53A/R100T: -0.42, -0.48, -0.70, -1.02, -0.61, -0.51 (mean -0.62; controls 1 of 18).
N30E/D106T/S107Q: 1.44, 0.50, 0.14, 0.76, 0.89, 0.81 (mean 0.76; controls 1 of 18).
N30E/G61D/R100K: nd, 0.09, 0.03, 0.11, 1.05, 1.44 (mean 0.55; controls 0 of 18).
S31E/T58R/G61T: 0.36, 0.22, -0.04, 0.04, 0.01, 0.33 (mean 0.15; controls 1 of 18).
N30D/G61H/S107R: 0.47, 0.59, 1.01, 1.30, nd, 1.30 (mean 0.93; controls 0 of 18).
T28D/G61I/D106N/S107Q: 2.56, 1.98, 0.88, 1.58, 1.62, 1.54 (mean 1.69; controls 0 of 18).
T28Q/S31D/A101N/D106I: nd, nd, nd, nd, nd, nd (controls 0 of 18).
S31D/F59W/G61I/S107A: nd, nd, 0.95, 2.07, nd, 0.99 (mean 1.34; controls 1 of 18).
T28D/R57K/G61D/R100Q/A101E: nd, 1.39, 0.29, 1.83, 0.41, 1.52 (mean 1.09; controls 0 of 18).
N30E/S53A/S63N: 0.49, 0.40, 0.04, 0.39, -0.13, 1.57 (mean 0.46; controls 0 of 18).
S31E/D62Q/G103V/S107Q: nd, nd, nd, nd, nd, nd (controls 0 of 18).
G61C/R100Q/A101L/S107T: nd, nd, nd, nd, 1.94, nd (controls 0 of 18).
S31E/G61T/A101L/D106V: nd, nd, nd, nd, nd, nd (controls 0 of 18).
S31Q/R56W/G61S/R100Q/D106T: nd, 2.50, 2.18, nd, nd, nd (mean 2.34; controls 1 of 18).
T28V/S31D/F59W/G61I: nd, nd, nd, nd, nd, nd (controls 0 of 18).
G61S/R100H/A101V/A102G: 1.05, 0.82, 1.32, 0.70, 1.14, 2.91 (mean 1.32; controls 0 of 18).
T28D/G61T/A101F: -0.17, -0.12, -0.35, -0.20, -0.26, -0.10 (mean -0.20; controls 0 of 18).
N30K/S31E/G103V/S107K: nd, nd, nd, nd, nd, nd (controls 0 of 18).
T28D/G61A/R100Q/A101L: 0.44, -0.21, -0.13, 0.13, -0.60, -0.03 (mean -0.07; controls 0 of 18).
T28H/G61D/R100L/A101L: nd, nd, nd, 1.26, nd, nd (controls 0 of 18).
T28W/S31E/G61H/S107L: 0.56, 0.01, -0.52, -0.37, -0.51, 0.07 (mean -0.13; controls 0 of 18).
G26R/N30E/S53A: 0.60, 1.53, 0.96, 1.12, 0.87, 0.97 (mean 1.01; controls 0 of 18).
T28D/S31E/R100Q/S107Q: -0.57, -0.26, 0.89, 2.04, -0.43, 0.74 (mean 0.40; controls 0 of 18).
S31D/F59M/G61M/A101R: 1.69, nd, 1.01, nd, nd, nd (mean 1.35; controls 1 of 18).
S31D/G61S/A101E/D106F: nd, 2.35, 1.29, 2.46, 3.28, nd (mean 2.35; controls 0 of 18).
T28L/S31D/F59E: -0.66, nd, nd, nd, nd, nd (controls 0 of 18).
T28D/S31D/R100K: nd, nd, nd, nd, nd, nd (controls 1 of 18).
S31D/F59M/D106W: nd, nd, nd, nd, nd, nd (controls 0 of 18).
T28E/S31E/F59M/A101C: nd, 1.62, 1.69, nd, nd, nd (mean 1.65; controls 0 of 18).
T28D/G61I/S107L: 1.33, 0.58, 0.62, 0.33, 1.41, 0.85 (mean 0.85; controls 1 of 18).
T28W/F59A/G61H: 0.77, 0.62, 0.28, 1.06, 0.11, 0.18 (mean 0.50; controls 0 of 18).
S31D/G61K/R100K/D106T: nd, nd, nd, nd, nd, nd (controls 0 of 18).
S31E/G103D/S107Q: nd, nd, nd, nd, nd, nd (controls 0 of 18).
S31E/G61I/A102G: nd, 0.48, 1.15, 1.47, 0.71, 1.21 (mean 1.00; controls 0 of 18).
T28D/G61C/A102G: nd, nd, nd, nd, nd, nd (controls 0 of 18).
N30D/R100E/S107R: 1.29, 0.97, 2.80, 1.46, 1.38, 1.02 (mean 1.49; controls 0 of 18).
N30D/G61H/R100Q/A101L: 0.34, 0.70, 0.48, 0.37, 0.36, 0.41 (mean 0.44; controls 0 of 18).
S31E/G61S/R100H: 0.52, 0.18, 0.45, 2.21, 1.62, 0.67 (mean 0.94; controls 0 of 18).
S31E/Y32F/G61T/A101Q: 0.80, 0.81, 1.02, 0.36, 0.92, 0.61 (mean 0.75; controls 0 of 18).
T28S/S31E/R56M/G61S: 0.87, -0.18, 0.19, 0.17, 0.09, 0.16 (mean 0.22; controls 0 of 18).

Repeated from above, the 3 best binders with a signal in all replicates:

changes	replicates, log10 nM	log10 Kd (nM), mean	empty controls
T28S/S31E/S53A/R100T	-0.42, -0.48, -0.70, -1.02, -0.61, -0.51	-0.62	1 of 18
T28D/G61T/A101F	-0.17, -0.12, -0.35, -0.20, -0.26, -0.10	-0.20	0 of 18
T28W/S31E/G61H/S107L	0.56, 0.01, -0.52, -0.37, -0.51, 0.07	-0.13	0 of 18

The measurements come from Li et al. 2023 (doi:10.1038/s41467-023-39022-2) through the FLAb antibody collection.